# Apparent affinities of Ab-91 variants for a coronavirus HR2 peptide

Binding partner: SARS-CoV-2 spike HR2 peptide, sequence PDVDLGDISGINAS.

Each scFv is VL, the linker GGGGSGGGGSGGGGS, VH, as in the parent Ab-91, and differs from it in the CDRs of the heavy chain only.
VL: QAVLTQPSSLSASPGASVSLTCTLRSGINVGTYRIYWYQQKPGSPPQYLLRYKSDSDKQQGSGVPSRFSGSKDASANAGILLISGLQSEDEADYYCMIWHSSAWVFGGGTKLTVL
VH: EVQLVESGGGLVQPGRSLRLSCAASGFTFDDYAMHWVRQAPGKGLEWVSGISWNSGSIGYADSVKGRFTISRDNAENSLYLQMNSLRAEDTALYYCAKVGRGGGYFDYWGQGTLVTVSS

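The library (AAYL51) carries one to three amino acid substitutions per variant, with no insertions or deletions. The assay is AlphaSeq: two haploid yeast populations carry antibody and antigen on their surface. The frequency of each diploid, read from paired DNA barcodes, reflects how well the two displayed proteins bind. The ratio of observed to expected reads was calibrated, replicate by replicate, on BCL2-family standards whose Kd was known from biolayer interferometry. Mating was done three times.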

Changes read parent residue, position, new residue, counted from the first residue of the VH shown.
The read-out is the apparent dissociation constant on a log10 scale (nM): the lower, the stronger.
Averages over replicates are reported, and they cover detected replicates only.
Where no diploid with the target was found in any replicate, the entry reads "nd": below detection, most likely a poor binder, though not proof of it.
In this assay the parent's reference entry averaged 1.86; its copy inside this library read 0.88.
Background: pairings of library AAYL51 with three empty control strains gave a value in 21% of cases (median 4.54, 5th percentile 3.26). Values in that range, when seen in few replicates, are hard to tell from nonspecific mating.

3.33 (1 of 3 replicates): S57K+Y60S+G103K.
4.57 (2 of 3 replicates): F29L+D31G+H35I.
5.07 (1 of 3 replicates): M34V+G102D+G104H.
nd (0 of 3 replicates): T28V+N54C+V64S.
0.55 (3 of 3 replicates): T28Q+D30R+K65D.
4.10 (2 of 3 replicates): D30G+M34C+Y60R.
4.85 (1 of 3 replicates): F29W+S52P+V99W.
nd (0 of 3 replicates): M34V+S52N+G59H.
4.68 (3 of 3 replicates): N54Q+A61I+Y108E.
nd (0 of 3 replicates): A33V+V64S.
5.26 (1 of 3 replicates): M34N+N54T+V64P.
3.88 (1 of 3 replicates): K65P+Y108K.
5.96 (2 of 3 replicates): G59R+D107L.
4.17 (1 of 3 replicates): S52A+S57Y+G102L.
nd (0 of 3 replicates): K65I+V99M+G103E.
5.60 (1 of 3 replicates): M34H+S52I+G103P.
-0.05 (3 of 3 replicates): T28V+D31W+W53G.
nd (0 of 3 replicates): S52M+V64H+G103E.
nd (0 of 3 replicates): A33D+G50K+F106W.
nd (0 of 3 replicates): H35Y+G103M+Y108Q.
4.46 (1 of 3 replicates): A33D+S52H+Y105S.
nd (0 of 3 replicates): A33M+F106Q+Y108Q.
nd (0 of 3 replicates): Y60R+A61L+G100L.
nd (0 of 3 replicates): Y32R+S63R.
3.96 (1 of 3 replicates): D31I+A33N+K65Q.
nd (0 of 3 replicates): N54A+S55F+S63A.
5.64 (1 of 3 replicates): D30Y+W53K+K65F.
5.36 (2 of 3 replicates): W53H+N54E+S55L.
nd (0 of 3 replicates): M34V+W53V+V99G.
4.82 (3 of 3 replicates): H35S+S57A+R101H.
4.11 (2 of 3 replicates): D30Q+N54R+K65I.
nd (0 of 3 replicates): A33Q+V99M+R101G.
2.34 (3 of 3 replicates): D62N+S63K+R101I.
nd (0 of 3 replicates): I51H+W53D+S63H.
nd (0 of 3 replicates): G26I+W53M+G56C.
nd (0 of 3 replicates): I58N+D62A+K65E.
nd (0 of 3 replicates): A33H+M34V+S55C.
nd (0 of 3 replicates): S55H+Y105A+Y108G.
nd (0 of 3 replicates): N54K+G103C+G104N.

Extract of 4 entries:

| changes | mean log10 Kd (nM) | seen in |
|---|---|---|
| A33H+M34V+S55C | nd | 0 of 3 |
| M34H+S52I+G103P | 5.60 | 1 of 3 |
| M34V+S52N+G59H | nd | 0 of 3 |
| K65I+V99M+G103E | nd | 0 of 3 |

Reference: Engelhart et al. 2022, doi:10.1038/s41597-022-01779-4. File: FLAb, binding data.